# Experimental data as given in patent US10442871B2, “Modified cyclodextrins for the selective sequestration of fentanyl related compounds and uses thereof” (dated 2019).
# Legend:
# [1] = 1H NMR titration, CD:fentanyl binding affinity; conditions: NMR-derived binding affinity; HCl salt; D2O; error in parentheses from NLLS regression
# [2] = 1H NMR titration, CD:thiofentanyl binding affinity; conditions: NMR-derived binding affinity; HCl salt
# [3] = 1H NMR titration, CD:acetylfentanyl binding affinity; conditions: NMR-derived binding affinity; HCl salt
# [4] = 1H NMR titration, CD:acetylthiofentanyl binding affinity; conditions: NMR-derived binding affinity; HCl salt
substance,measurement,setting,value
6-deoxy-6-amino-β-CD,"K, fentanyl HCl",[1],174 (16) M^−1
same,"K, thiofentanyl HCl",[2],177 (33) M^−1
same,"K, acetylfentanyl HCl",[3],66 (8) M^−1
same,"K, acetylchiofentanyl HCl",[4],108 (28) M^−1
